Common to all, as to assay type: in vivo
Assay [1] concerns Pdss2kd/kd homozygous missense mutant mice. Put plainly: Polarography of permeabilized skeletal muscle of Pdss2kd/kd mice (Oxygraph 2K). Particulars: 5 to 10 μg/ml in drinking water, two months, compared to wild-type (B6). How it is done:
FIGS. 15A-15B: (+) Epicatechin treatment (5 to 10 μg/ml fed in drinking water) of Pdss2^kd/kd homozygous missense mutant mice, which have neuromuscular dysfunction, Parkinsonism, and renal glomerular disease due to impaired Coenzyme Q biosynthesis, normalized their reduced complex I-dependent and complex I+II integrated respiratory chain oxidative phosphorylation capacity as compared to wild-type (B6) controls. Pdss2^kd/kd mice were already grossly ill with renal disease as evidenced by frank albuminuria at the time (+) Epicatechin treatment was begun at 90-115 days of life, with daily refreshing of their treatment for two months prior to sacrifice and tissue analysis. Polarography was performed by Oxygraph 2K (Oroboros Instruments) in freshly isolated permeabilized skeletal muscle to evaluate mitochondrial complex I (malate+ADP) integrated oxphos capacity (FIG. 15A) and integrated mitochondrial complexes I+II (malate+succinate+ADP) oxphos capacity (FIG. 15B). N conveys number of animals studied per condition, split to display sex-related effects.
Further analysis of integrated mitochondrial respiratory chain capacity was performed by polarography in freshly isolated skeletal muscle using a permeabilized tissue protocol with malate as the complex I substrate, and malate+succinate as the complex I+II substrates, together with high ADP per standard protocol (Oxygraph 2k, Oroboros Instruments). N=2-6 animals/condition, as detailed. B6 control animals were sacrificed between 127 and 137 days of life. Pdss2^kd/kd mice were fed (+) Epicatechin ad libitum from approximately 90-120 days of life (when symptoms of renal glomerular disease were already present based on frank albuminuria) until sacrifice at approximately 150-190 days of life. […] A consistent trend was seen of increased mitochondrial complex I and complex I oxphos capacity as well as increased mitochondrial complex I+II oxphos capacity with 5 μg/mL to 10 μg/mL (+) epicatechin oral treatment in their drinking water for 2 months after the onset of renal disease.

Assay [2] concerns gas-1(fc21) ndufs2−/− complex I disease mutant worms. Briefly: C. elegans gas-1(fc21) lifespan analysis. As to conditions: 20° C., without FUDR. The text has this: FIG. 2C, the Table below FIGS. 2A and 2B indicates specific values and P values calculated in Graphpad Prism v5.0 for graph shown in FIG. 2B (survival data is shown in days). FIGS. 2D-2F: Comparative analysis of 4-log concentration range of (+) epicatechin (Epi plus), (−) epicatechin (Epi minus), and 11-β-hydroxypregnenolone (11OHP) on lifespan of gas-1(fc21) ndufs2^−/− complex I disease mutant worms.
Neuromuscular activity, and lifespan were quantified in the C. elegans gas-1(fc21) ndufs2^−/− mutants. A semi-automated screening method (Mathew et al, 2016) was used to test drug treatment effects on an integrated C. elegans health endpoint of fecundity, brood size, and behavior.
(−) Epicatechin and (+) Epicatechins act through mimicry of the endogenous mitochondrial steroid 11-β-hydroxypregnenolone (11-OHP), a potent inducer of mitochondrial biogenesis. C. elegans nematode strains studied included wild-type (N2 Bristol) and gas-1(fc21) mutants. […] FIGS. 2D, 2E and 2F are graphs show a side-by-side comparison of (+)-epicatechin, (−)-epicatechin and 11-0HP on gas-1(fc-21) worm survival.

Assay [3] deals with Pdss2kd/kd homozygous missense mutant mice. Briefly: Liver mitochondrial content (VDAC western blot, citrate synthase activity) in Pdss2kd/kd mice. As to conditions: 5 or 10 μg/mL in drinking water; approximately 2 months. On the technique in general: Immunoblotting shows a protein as a band on a membrane.

Consider `Oc1cc(O)c2c(c1)O[C@@H](c1ccc(O)c(O)c1)[C@@H](O)C2` [(+) epicatechin], for which the results for the “complex I+II (malate+succinate+ADP) integrated oxphos capacity in skeletal muscle” value in assay [1] and in assay [1] (listed as (+) Epicatechin) were “increased” and “normalized”, respectively. Besides, the “complex I-dependent (malate+ADP) integrated oxphos capacity in skeletal muscle” value in assay [1] is “increased”; in assay [1] (listed as (+) Epicatechin) it was “normalized”. Further, the “short lifespan of gas-1(fc21) worms relative to wild-type” value is “significant but somewhat lesser degree” in assay [2] (1 nM), “significantly rescued” in assay [2] (10 nM) and “significant but somewhat lesser degree” in assay [2] (100 nM). The “VDAC (porin) protein expression in liver relative to untreated mutant controls” value in assay [3] was “Significant increase”.
